Laboratory results from article PMC10350917, “Synthesis of a Novel Boronic Acid Transition State Inhibitor, MB076: A Heterocyclic Triazole Effectively Inhibits Acinetobacter-Derived Cephalosporinase Variants with an Expanded-Substrate Spectrum” (Journal of Medicinal Chemistry, 2023).

Tested on: CO/N=C(\C(=O)N[C@@H]1C(=O)N2C(C(=O)O)=C(COC(C)=O)CS[C@H]12)c1csc(N)n1
Experiment: purified protein, by the assay type
Conditions: 50 mM NaH2PO4 pH 7.4, room temperature

In the case of ADC-7 (Acinetobacter baumannii), the Km (other: ADC-7, substrate) is reported as 1.23 µM, the kcat (other: ADC-7, substrate) is reported as 0.0475 ± 0.0012 s⁻¹ and the kcat/Km (other: ADC-7, substrate) is reported as 38600 ± 6300 M⁻¹ s⁻¹.

For ADC-30 (Acinetobacter baumannii), the Km (other: ADC-30, substrate) was 4.35 µM, the kcat (other: ADC-30, substrate) was 0.117 ± 0.009 s⁻¹ and the kcat/Km (other: ADC-30, substrate) was 27000 ± 13000 M⁻¹ s⁻¹.

ADC-33 (Acinetobacter baumannii) gave a Km (other: ADC-33, substrate) of 7.11 µM, a kcat (other: ADC-33, substrate) of 0.463 ± 0.014 s⁻¹ and a kcat/Km (other: ADC-33, substrate) of 63000 ± 10000 M⁻¹ s⁻¹.

ADC-162 (Acinetobacter baumannii) was tested, and the Km (other: ADC-162, substrate) was 115.2 ± 15.5 µM, the kcat (other: ADC-162, substrate) was 25.4 ± 1.4 s⁻¹ and the kcat/Km (other: ADC-162, substrate) was 220000 ± 42000 M⁻¹ s⁻¹.
